# Laboratory results reported in patent US4209511A, “Aminoglycoside antibiotics and process for production thereof” (Yamanouchi Pharmaceutical Co., Ltd., priority 1978, dated 1980).
# Tested on: mice
# Conditions: mouse, in vivo, iv, 125 mg/kg
compound,measurement,value
"NC[C@@H]1CC[C@@H](N)[C@@H](O[C@H]2[C@H](O)[C@@H](O[C@H]3O[C@H](CO)[C@@H](O)[C@H](N)[C@H]3O)[C@H](N)C[C@@H]2N)O1 [DKB, Dibekacin, reference compound]","lethality, acute toxicity test",killed all the mice tested
